Assay results: patent US20090068143A1, “ORALLY EFFECTIVE CANNABINOID ANALOGS” (priority 2005, published 2009)

B1: IFN-β: interferon-beta; Rebif® in b238, Betaferon (Schering, Germany) in b259 (protein, UniProt P01574 22-187, looked up)
Interferon beta: MSYNLLGFLQRSSNFQCQKLLWQLNGRLEYCLKDRMNFDIPEEIKQLQQFQKEDAALTIYEMLQNIFAIFRQDSSSTGWNETIVENLLANVYHQINHLKTVLEEKLEKEDFTRGKLMSSLHLKRYYGRILHYLKAKEYSHCAWTIVRVEILRNFYFINRLTGYLRN

Tests used:
[1] = in vivo; cited from earlier work
[2] = test system: MOG induced chronic progressive EAE; test: MOG induced chronic-progressive EAE
EAE = conditions: cited from earlier work

Molecule	patients developing neutralizing antibodies (NAbs) [1]	disease course ([2]; separate study, 10,000 IU per day s.c.)	AUC of clinical score ([2]; separate study, daily from day 13, 18F 40 mg/kg p.o., COP-1 25 mg/kg s.c., IFN-β 10,000 IU per mouse s.c., control 24.14)	reduction of severity of the disease (EAE; Rebif® 300,000 IU once a day for 3 days from day of MBP injection)	efficacy of treatment initiated at a later stage (EAE; Ruuls et al.)	reduction of disease severity at the peak (EAE; prophylactic, from 2 days before MBP injection, 10 days (Van Der Meide et al.))
IFN-1-1a: beta interferon product (probably IFN-β-1a) to which patients develop NAbs	two to twenty-eight					
B1		very similar to control group	23.08 units	about 30%	not effective	1 score point
